This is a selection; strong and weak results do not stand in their true shares. Activity calls are given as the source filed them.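 How the source made its calls: active means B-score above 5 SD of library B-scores, and initial fluorescence ratio not above library mean plus 5 SD; inactive means the rest.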

By UniProt entry, the sequences of proteins in these tests, tags left out.
UniProt Q9QUQ5, whole entry: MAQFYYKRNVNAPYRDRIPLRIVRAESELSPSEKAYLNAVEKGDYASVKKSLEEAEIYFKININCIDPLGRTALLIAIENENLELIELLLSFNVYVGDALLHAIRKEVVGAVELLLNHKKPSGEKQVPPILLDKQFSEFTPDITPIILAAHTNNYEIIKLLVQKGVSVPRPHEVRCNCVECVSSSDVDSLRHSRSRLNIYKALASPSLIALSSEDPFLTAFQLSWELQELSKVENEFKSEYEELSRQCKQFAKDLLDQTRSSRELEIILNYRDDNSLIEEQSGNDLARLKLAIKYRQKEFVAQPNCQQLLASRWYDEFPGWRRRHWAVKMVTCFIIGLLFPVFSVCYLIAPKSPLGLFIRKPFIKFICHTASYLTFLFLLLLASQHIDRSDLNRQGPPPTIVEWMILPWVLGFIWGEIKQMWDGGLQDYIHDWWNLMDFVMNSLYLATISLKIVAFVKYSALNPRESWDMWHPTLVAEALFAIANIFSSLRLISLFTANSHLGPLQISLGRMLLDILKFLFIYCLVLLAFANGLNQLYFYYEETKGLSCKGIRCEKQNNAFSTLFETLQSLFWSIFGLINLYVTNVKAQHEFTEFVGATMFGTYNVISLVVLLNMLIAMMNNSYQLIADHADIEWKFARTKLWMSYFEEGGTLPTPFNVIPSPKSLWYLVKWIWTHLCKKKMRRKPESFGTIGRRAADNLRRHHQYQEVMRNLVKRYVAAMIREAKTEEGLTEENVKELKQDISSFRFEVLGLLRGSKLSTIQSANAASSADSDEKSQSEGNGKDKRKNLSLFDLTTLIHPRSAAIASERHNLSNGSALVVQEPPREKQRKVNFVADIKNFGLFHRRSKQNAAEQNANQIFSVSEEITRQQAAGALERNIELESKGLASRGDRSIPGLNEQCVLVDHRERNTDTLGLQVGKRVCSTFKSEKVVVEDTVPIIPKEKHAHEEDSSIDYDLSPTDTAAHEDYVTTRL

25 compounds from PubChem BioAssay AID2237 (Johns Hopkins Ion Channel Center, 2010) can be followed below.

In this test the target is Short transient receptor potential channel 4 (Mus musculus) (UniProt Q9QUQ5). Briefly: activators of mouse TRPC4 channel, primary screen, Fluo4 calcium, HEK293 TRPC4beta/mu-opioid cells (AID 2237). Conditions: Fluo4 calcium fluorescence, at 10 µM.
Take `CC(C)c1ccc(NC2CCN(C(=O)OC(C)(C)C)CC2)cc1`: the result was inactive.

In the case of `CN(C)c1cccc(C(=O)NCC2(N3CCCCC3)CCCCC2)c1`, the outcome was inactive.

Consider `COc1ccc(CN(CCCl)CCCl)cc1Cl`, for which the result was inactive.

As for `COc1cc(OC)c(C(=O)NCC2(N(C)C)CCCCC2)cc1OC`, the outcome was inactive.

With `CN1CCC(Nc2cccc(F)c2)CC1`, the result was inactive.

Take `CCCOc1ccc(C(=O)NCC2(N(C)C)CCCCC2)cc1OC`: the result was inactive.

As for `COc1ccc(C(=O)NCC2(N3CCCCC3)CCCCC2)c(OC)c1OC`, the result was inactive.

As to `CC(C)(C)OC(=O)N1CCC(N(C(=O)c2ccccc2)c2ccc(F)cc2)CC1`, the outcome was inactive.

For the compound `COc1ccc(C(=O)NCC2(N3CCCCC3)CCCCC2)cc1`, the result was inactive.

With `O=C(NCC1(N2CCCCC2)CCCCC1)c1cccs1`, the outcome was inactive.

For `O=C(NCC1(N2CCCCC2)CCCCC1)c1ccc(=O)[nH]c1`, the result was inactive.

Consider `CSc1ccccc1C(=O)NCC1(N2CCCCC2)CCCCC1`, for which the outcome was inactive.

In the case of `Cc1cc(C)cc(N(C(=O)c2ccccc2)C2CCN(C(=O)OC(C)(C)C)CC2)c1`, the outcome was inactive.

Take `O=C(NCC1(N2CCCCC2)CCCCC1)c1ccc(Cl)nc1`: the result was inactive.

As to `O=C(NCC1(N2CCOCC2)CCCCC1)c1cc2ccccc2o1`, the outcome was inactive.

Turning to `O=C(OC1CN2CCC1CC2)C1c2ccccc2Oc2ccccc21` (stereo not given), the result was inactive.

Regarding `N#CC1(Nc2ccccc2)CCN(Cc2ccccc2)CC1`, the result was inactive.

In the case of `CCOC(=O)N1CCC(Nc2ccc(OC)cc2)CC1`, the outcome was inactive.

For the compound `CCOc1ccc(C)cc1CN(CCCl)CCCl`, the outcome was inactive.

With `CCOC(=O)N1CCC(Nc2ccc(F)cc2)CC1`, the outcome was inactive.

With `COc1ccc(NC2CCN(CCc3ccccc3)CC2)c(OC)c1`, the outcome was inactive.

In the case of `O=C(NCC1(N2CCCCC2)CCCCC1)c1ccc(F)cc1`, the result was inactive.

`Cc1ccc(OCC(C)C)c(CN(CCCl)CCCl)c1`: the outcome was inactive.

With `COc1cc(C(=O)NCC2(N(C)C)CCCCC2)ccc1OC(F)F`, the outcome was inactive.

On to `CCOC(=O)N1CCC(Nc2cccc(C)c2)CC1`, for which the result was inactive.
